Assay results published in publication PMC12136991 (ACS chemical neuroscience, 2025).

By UniProt entry, the sequences of proteins in these tests, tags left out. Where a name states a change or a piece, a line headed by the entry shows the natural chain unless it says otherwise.
UniProt P41145: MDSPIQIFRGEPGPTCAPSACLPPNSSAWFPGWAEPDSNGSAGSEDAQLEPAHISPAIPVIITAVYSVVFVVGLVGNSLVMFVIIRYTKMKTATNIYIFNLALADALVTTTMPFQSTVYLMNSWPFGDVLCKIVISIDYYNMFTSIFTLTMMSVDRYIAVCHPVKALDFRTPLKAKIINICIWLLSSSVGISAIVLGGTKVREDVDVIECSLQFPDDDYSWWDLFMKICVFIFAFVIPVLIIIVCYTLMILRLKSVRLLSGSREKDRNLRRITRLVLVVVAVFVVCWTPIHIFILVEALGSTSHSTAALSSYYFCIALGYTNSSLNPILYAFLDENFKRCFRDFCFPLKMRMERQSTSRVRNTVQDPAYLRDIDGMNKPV

Molecular target: human κ-opioid receptor (OPRK1) (Homo sapiens, UniProt P41145)
Experiment: Forskolin-induced cAMP accumulation assay, KOR antagonist mode
Settings: versus EC90 of U50488H; normalized to nor-BNI

SMILES: Oc1ccc2c3c1O[C@H]1c4[nH]c5c(c4C[C@@]4(O)[C@@H](C2)N(CC2CC2)CC[C@]314)C[C@@]1(O)[C@H]2Cc3ccc(O)c4c3[C@@]1(CCN2CC1CC1)[C@H]5O4 [Nor-BNI, reference compound]
- KOR Antagonist %Imax ± SEM: 102.4 ± 1.2%
